Experimental data: patent publication US9162979B2, “1,5-Diary1-2-alkylpyrrole-3-substituted nitro esters, selective COX-2 inhibitors and nitric oxide donors” (ROTTAPHARM BIOTECH S.R.L., priority 2010, dated 2015)

The chains behind the UniProt entries cited, without tags or fusion partners. Residues count along the entry.
UniProt Q05769, 18-604: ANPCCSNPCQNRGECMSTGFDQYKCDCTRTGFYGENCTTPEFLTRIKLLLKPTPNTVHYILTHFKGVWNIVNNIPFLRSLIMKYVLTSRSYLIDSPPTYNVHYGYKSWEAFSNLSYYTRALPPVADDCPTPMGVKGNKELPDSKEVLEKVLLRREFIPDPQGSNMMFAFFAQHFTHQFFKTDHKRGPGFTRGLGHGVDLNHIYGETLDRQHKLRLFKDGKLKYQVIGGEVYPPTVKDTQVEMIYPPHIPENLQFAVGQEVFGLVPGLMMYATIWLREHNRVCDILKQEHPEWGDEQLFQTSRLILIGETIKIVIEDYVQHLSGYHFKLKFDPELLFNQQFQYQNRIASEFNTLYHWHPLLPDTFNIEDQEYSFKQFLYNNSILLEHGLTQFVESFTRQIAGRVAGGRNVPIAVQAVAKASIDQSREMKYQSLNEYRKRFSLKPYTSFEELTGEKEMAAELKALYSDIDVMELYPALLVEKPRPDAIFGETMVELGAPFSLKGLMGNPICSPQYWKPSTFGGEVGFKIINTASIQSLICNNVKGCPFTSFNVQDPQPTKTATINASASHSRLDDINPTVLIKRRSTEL

Target: COX-2 (Mus musculus (Mouse), UniProt Q05769)
Experiment: Evaluation of COX-2 activity: PGE2 production in LPS-stimulated J774 cells
Format: cell-based, murine
Conditions: J774 cells stimulated 24 hours with LPS 10 μg/mL; PGE2 by radio-immunological assay; read-out: Cyclooxygenase inhibition COX-2 IC50
Description: The murine monocyte/macrophage cell line J774 is grown in Dulbecco's modified Eagle's medium (DMEM), enriched with glutamine (2 mM), HEPES (25 mM), penicillin (100 u/mL), streptomycin (100 μg/mL), 10% of fetal bovine serum (FBS) and 1.2% of sodium pyruvate. The cells are distributed in 24-well plates at a density of 2.5×10^5 cells/mL or in culture dishes with a diameter of 10 cm (1×10^7 cells/10 mL/dish) and kept for 2 hours at 37° C. in a CO2 (5%)/O2 (95%) atmosphere. Just before the experiments, the culture medium is replaced with fresh medium without FBS to avoid interference during the radio-immunological phase and the cells are stimulated as described below.
The cells are stimulated, for 24 hours, with lipopolysaccharide of E. coli (10 μg/mL), to induce production of COX-2, in the absence and/or in the presence of the test compounds. The supernatants are collected for evaluating, by means of radio-immunological assays, the amount of PGE2 produced.
In each group of experiments, wells were used in triplicate for the different treatment conditions. The results are the mean value of 3 experiments and are expressed as percentage inhibition of production of PGE2 of the compounds tested relative to the control. The data were evaluated using the sigmoidal dose-response equation (variable slope) (GraphPad software). […]

Compound | IC50 [nM]
Cc1c(CCOCCO)cc(-c2ccc(S(C)(=O)=O)cc2)n1-c1ccccc1 [Example 36-II, 2-[2-[1-Phenyl-2-methyl-5-(4-methylsulphonylphenyl)-1H-pyrrol-3-yl]ethoxy]ethanol] | 27
Cc1c(CCOCCO)cc(-c2ccc(S(C)(=O)=O)cc2)n1-c1ccc(F)cc1 [Example 37-II] | 89
